What was measured:
[1] = test system: Sulfurihydrogenibium yellowstonense; assay: Activation of Sulfurihydrogenibium yellowstonense recombinant CA by stopped flow CO2 hydrase method
[2] = test system: Sulfurihydrogenibium azorense; assay: Activation of Sulfurihydrogenibium azorense recombinant alpha carbonic anhydrase by stopped flow CO2 hydrase method
How it was run: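 Full-length recombinant enzyme in a stopped-flow CO2 hydration assay at 25 °C: 0.2 mM phenol red read at its absorbance maximum, 10 mM Hepes pH 7.5, 0.1 M NaClO4, 10 s traces, CO2 1.7–17 mM. Activators were diluted from 10 mM water stocks down to 0.001 µM and preincubated with enzyme for 15 min at room temperature. Uncatalyzed rates were subtracted. kcat was measured at 10 µM activator. KA came from a steady-state equation, mean of ≥3 determinations.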

| SMILES | KA [1] [µM] | KA [2] [µM] |
| --- | --- | --- |
| N[C@@H](Cc1ccccc1)C(=O)O | 0.008 | 0.062 |
| N[C@H](Cc1ccccc1)C(=O)O | 5.13 | 0.009 |
